Source: patent US12129266B2, “Substituted pyrazolo[1,5-a]pyridine compound, composition containing the same and use thereof” (Shenzhen TargetRx, Inc., priority 2018, dated 2024)

What follows are molecules tested on Ba/F3 parental (assay: cells). Settings: Mus musculus, BaF3, 72 h, read-out: IC50 (nM) Ba/F3 parental.
`[2H]C([2H])([2H])Oc1ccc(CN2C3CC2CN(c2ccc(-c4cc(-c5cnn(C)c5)cn5ncc(C#N)c45)cn2)C3)cn1` [Example 1, 4-(6-(6-((6-(methoxy-d3)pyridin-3-yl)methyl)-3,6-diazabicyclo[3.1.1]heptan-3-yl)pyridin-3-yl)-6-(1-methyl-1H-pyrazol-4-yl)pyrazolo[1,5-a]pyridine-3-carbonitrile] was tested, and the IC50 was 288 nM.
With `[2H]C([2H])(c1ccc(OC)nc1)N1C2CC1CN(c1ccc(-c3cc(-c4cnn(C([2H])([2H])[2H])c4)cn4ncc(C#N)c34)cn1)C2` [Example 5, 4-(6-(6-((6-methoxypyridin-3-yl)methyl-d2)-3,6-diazabicyclo[3.1.1]heptan-3-yl)pyridin-3-yl)-6-(1-(methyl-d3)-1H-pyrazol-4-yl)pyrazolo[1,5-a]pyridine-3-carbonitrile] the IC50 was 261 nM.
Molecule `[2H]C([2H])([2H])Oc1ccc(C([2H])([2H])N2C3CC2CN(c2ccc(-c4cc(-c5cnn(C)c5)cn5ncc(C#N)c45)cn2)C3)cn1` [Example 3, 4-(6-(6-((6-(methoxy-d3)pyridin-3-yl)methyl-d2)-3,6-diazabicyclo[3.1.1]heptan-3-yl)pyridin-3-yl)-6-(1-methyl-1H-pyrazol-4-yl)pyrazolo[1,5-a]pyridine-3-carbonitrile] has an IC50 of 260 nM.
Work on `[2H]C([2H])([2H])Oc1ccc(CN2C3CC2CN(c2ccc(-c4cc(-c5cnn(C([2H])([2H])[2H])c5)cn5ncc(C#N)c45)cn2)C3)cn1` [Example 4, 4-(6-(6-((6-(methoxy-d3)pyridin-3-yl)methyl)-3,6-diazabicyclo[3.1.1]heptan-3-yl)pyridin-3-yl)-6-(1-(methyl-d3)-1H-pyrazol-4-yl)pyrazolo[1,5-a]pyridine-3-carbonitrile] yielded an IC50 of 261 nM.
In the case of `[2H]C([2H])(c1ccc(OC)nc1)N1C2CC1CN(c1ccc(-c3cc(-c4cnn(C)c4)cn4ncc(C#N)c34)cn1)C2` [Example 2, 4-(6-(6-((6-methoxypyridin-3-yl)methyl-d2)-3,6-diazabicyclo[3.1.1]heptan-3-yl)pyridin-3-yl)-6-(1-methyl-1H-pyrazol-4-yl)pyrazolo[1,5-a]pyridine-3-carbonitrile], the IC50 was 296 nM.
For `[2H]C([2H])([2H])Oc1ccc(C([2H])([2H])N2C3CC2CN(c2ccc(-c4cc(-c5cnn(C([2H])([2H])[2H])c5)cn5ncc(C#N)c45)cn2)C3)cn1` [Example 6, 4-(6-(6-((6-(methoxy-d3)pyridin-3-yl)methyl-d2)-3,6-diazabicyclo[3.1.1]heptan-3-yl)pyridin-3-yl)-6-(1-(methyl-d3)-1H-pyrazol-4-yl)pyrazolo[1,5-a]pyridine-3-carbonitrile], the IC50 was 252 nM.
Work on `[2H]C([2H])([2H])n1cc(-c2cc(-c3ccc(N4CC5CC(C4)N5Cc4ccc(OC)nc4)nc3)c3c(C#N)cnn3c2)cn1` [Example 7, 4-(6-(6-((6-methoxypyridin-3-yl)methyl)-3,6-diazabicyclo[3.1.1]heptan-3-yl)pyridin-3-yl)-6-(1-(methyl-d3)-1H-pyrazol-4-yl)pyrazolo[1,5-a]pyridine-3-carbonitrile] yielded an IC50 of 664 nM.
